PubChem BioAssay AID1423 (NMMLSC, 2008)
The list shows a part of the results, in another mix than the full data. Some results for these compounds are left out of this collection, so the calls shown say nothing about other tests. The source made the active and inactive calls. Cut-off read from the data, not from the text of the source: active = response below about 60% or above about 140%; inactive = in between.

Amino acid sequences for entries named in this document (tags omitted).
UniProt P09471, whole entry: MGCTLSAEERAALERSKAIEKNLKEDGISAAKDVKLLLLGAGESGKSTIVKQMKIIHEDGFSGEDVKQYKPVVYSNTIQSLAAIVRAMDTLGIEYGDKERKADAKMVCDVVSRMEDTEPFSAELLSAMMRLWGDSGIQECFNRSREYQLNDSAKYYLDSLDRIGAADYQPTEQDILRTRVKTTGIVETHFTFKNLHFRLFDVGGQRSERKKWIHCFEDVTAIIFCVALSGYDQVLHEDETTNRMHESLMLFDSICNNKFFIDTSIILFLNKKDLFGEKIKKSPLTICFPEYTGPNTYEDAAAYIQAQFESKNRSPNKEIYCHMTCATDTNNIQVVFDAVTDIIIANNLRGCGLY

What follows are molecules tested against Guanine nucleotide-binding protein G(o) subunit alpha (Homo sapiens) (UniProt P09471) (assay: compounds changing RGS8 association with Galphao – biochemical, multiplexed bead flow cytometry, primary screen (AID 1423;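 note: Galphao activated as the GDP aluminium fluoride complex binding bead-coupled RGS8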)). Settings: at 10 µM, actives lie on both sides.

SMILES	response (percent of control binding)
O=C(NCC1(N2CCCCC2)CCCCC1)c1cc([N+](=O)[O-])ccc1Cl	inactive: 102%
CCN(CC)CC(C)C(C)OC(=O)C(O)(c1ccccc1)c1ccccc1 (stereo unspecified)	inactive: 96.7%
CC(C)N1C(=O)CC2(CCN(CCOC(=O)C(O)(c3ccccc3)c3ccccc3)CC2)C1=O	inactive: 99.6%
CN(C)C1CCCC1OC(=O)C(O)(c1ccccc1)c1ccccc1 (stereo unspecified)	inactive: 101%
Cc1ccccc1C(=O)NCC1(N2CCCCC2)CCCCC1	inactive: 105%
C=CCN1CCN(CCOC(=O)C(O)(c2ccccc2)c2ccccc2)CC1	inactive: 101%
CCN1CCCC(OC(=O)C2(O)c3ccccc3C=Cc3ccccc32)C1 (stereo unspecified)	inactive: 118%
COc1cccc(C(=O)NCC2(N3CCCCC3)CCCCC2)c1	inactive: 98.1%
O=C(OC1CN2CCC1CC2)C(CO)(c1ccccc1)c1ccccc1 (stereo unspecified)	inactive: 101%
COc1ccc(Br)c(C(=O)NCC2(N3CCCCC3)CCCCC2)c1	inactive: 100%
CN(C)c1cccc(C(=O)NCC2(N(C)C)CCCCC2)c1	inactive: 99.9%
